Values of other authors in US20240158750A1, “STROMA-FREE NK CELL DIFFERENTIATION FROM HUMAN PLURIPOTENT STEM CELLS” (The Children's Medical Center Corporation, priority 2021, published 2024).

The chains behind the UniProt entries cited, without tags or fusion partners. Where a name states a change or a piece, a line headed by the entry shows the natural chain unless it says otherwise.
UniProt O43463: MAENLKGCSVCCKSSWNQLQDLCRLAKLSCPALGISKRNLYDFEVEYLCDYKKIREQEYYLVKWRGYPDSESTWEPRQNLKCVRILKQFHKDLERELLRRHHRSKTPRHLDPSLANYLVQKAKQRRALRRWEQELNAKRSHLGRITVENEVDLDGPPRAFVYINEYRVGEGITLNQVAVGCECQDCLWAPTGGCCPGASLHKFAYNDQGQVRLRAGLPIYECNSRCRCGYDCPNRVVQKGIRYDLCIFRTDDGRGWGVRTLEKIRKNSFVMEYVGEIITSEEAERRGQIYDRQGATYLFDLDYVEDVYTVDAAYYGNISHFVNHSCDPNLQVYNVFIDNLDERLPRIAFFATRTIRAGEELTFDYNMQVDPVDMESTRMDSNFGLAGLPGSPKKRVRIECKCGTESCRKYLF
UniProt P26358: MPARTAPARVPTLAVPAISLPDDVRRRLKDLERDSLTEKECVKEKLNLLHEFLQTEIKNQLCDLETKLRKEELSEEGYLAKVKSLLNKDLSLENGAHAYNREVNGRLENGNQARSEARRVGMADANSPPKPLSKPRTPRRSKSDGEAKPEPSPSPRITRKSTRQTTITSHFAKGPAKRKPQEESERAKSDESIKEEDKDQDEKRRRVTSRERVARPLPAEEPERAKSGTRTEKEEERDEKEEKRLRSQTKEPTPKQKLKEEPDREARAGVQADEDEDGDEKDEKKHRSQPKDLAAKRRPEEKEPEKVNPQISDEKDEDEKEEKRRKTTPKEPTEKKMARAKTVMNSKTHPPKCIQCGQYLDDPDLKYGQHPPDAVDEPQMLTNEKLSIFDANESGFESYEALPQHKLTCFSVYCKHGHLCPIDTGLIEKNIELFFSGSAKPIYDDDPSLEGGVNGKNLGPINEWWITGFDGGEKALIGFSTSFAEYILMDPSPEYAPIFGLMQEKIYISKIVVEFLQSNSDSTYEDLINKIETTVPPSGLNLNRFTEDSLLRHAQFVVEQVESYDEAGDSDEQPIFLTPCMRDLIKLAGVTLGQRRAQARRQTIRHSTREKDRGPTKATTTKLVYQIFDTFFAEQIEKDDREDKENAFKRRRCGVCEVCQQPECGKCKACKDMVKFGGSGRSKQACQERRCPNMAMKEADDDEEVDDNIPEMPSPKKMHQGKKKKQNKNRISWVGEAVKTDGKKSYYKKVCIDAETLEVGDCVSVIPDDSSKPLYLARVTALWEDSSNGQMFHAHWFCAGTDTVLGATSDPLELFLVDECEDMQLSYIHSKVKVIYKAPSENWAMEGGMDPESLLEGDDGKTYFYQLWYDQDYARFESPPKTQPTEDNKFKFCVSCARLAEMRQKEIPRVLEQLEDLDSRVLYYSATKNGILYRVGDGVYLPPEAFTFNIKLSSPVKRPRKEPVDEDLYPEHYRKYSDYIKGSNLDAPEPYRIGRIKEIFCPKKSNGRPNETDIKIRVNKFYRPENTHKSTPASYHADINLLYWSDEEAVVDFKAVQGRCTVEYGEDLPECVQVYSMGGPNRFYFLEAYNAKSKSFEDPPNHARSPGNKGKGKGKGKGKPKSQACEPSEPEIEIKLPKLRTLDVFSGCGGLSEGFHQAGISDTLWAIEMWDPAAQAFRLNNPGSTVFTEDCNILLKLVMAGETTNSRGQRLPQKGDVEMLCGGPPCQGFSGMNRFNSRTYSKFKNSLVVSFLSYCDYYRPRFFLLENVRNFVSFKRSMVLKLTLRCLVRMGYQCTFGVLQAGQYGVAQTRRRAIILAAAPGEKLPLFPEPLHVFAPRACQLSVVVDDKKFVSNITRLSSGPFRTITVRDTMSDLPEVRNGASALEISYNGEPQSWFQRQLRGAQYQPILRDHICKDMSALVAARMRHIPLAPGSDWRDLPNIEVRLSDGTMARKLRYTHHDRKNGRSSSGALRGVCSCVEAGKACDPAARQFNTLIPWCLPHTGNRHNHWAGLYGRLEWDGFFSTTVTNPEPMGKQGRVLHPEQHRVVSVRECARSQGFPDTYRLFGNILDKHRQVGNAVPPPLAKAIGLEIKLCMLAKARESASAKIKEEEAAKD

Columns and labels:
G9a = molecular target: T1, G9a (Homo sapiens, UniProt Q96KQ7); conditions: cited from earlier work
T1 sequence (Q96KQ7 1-1210): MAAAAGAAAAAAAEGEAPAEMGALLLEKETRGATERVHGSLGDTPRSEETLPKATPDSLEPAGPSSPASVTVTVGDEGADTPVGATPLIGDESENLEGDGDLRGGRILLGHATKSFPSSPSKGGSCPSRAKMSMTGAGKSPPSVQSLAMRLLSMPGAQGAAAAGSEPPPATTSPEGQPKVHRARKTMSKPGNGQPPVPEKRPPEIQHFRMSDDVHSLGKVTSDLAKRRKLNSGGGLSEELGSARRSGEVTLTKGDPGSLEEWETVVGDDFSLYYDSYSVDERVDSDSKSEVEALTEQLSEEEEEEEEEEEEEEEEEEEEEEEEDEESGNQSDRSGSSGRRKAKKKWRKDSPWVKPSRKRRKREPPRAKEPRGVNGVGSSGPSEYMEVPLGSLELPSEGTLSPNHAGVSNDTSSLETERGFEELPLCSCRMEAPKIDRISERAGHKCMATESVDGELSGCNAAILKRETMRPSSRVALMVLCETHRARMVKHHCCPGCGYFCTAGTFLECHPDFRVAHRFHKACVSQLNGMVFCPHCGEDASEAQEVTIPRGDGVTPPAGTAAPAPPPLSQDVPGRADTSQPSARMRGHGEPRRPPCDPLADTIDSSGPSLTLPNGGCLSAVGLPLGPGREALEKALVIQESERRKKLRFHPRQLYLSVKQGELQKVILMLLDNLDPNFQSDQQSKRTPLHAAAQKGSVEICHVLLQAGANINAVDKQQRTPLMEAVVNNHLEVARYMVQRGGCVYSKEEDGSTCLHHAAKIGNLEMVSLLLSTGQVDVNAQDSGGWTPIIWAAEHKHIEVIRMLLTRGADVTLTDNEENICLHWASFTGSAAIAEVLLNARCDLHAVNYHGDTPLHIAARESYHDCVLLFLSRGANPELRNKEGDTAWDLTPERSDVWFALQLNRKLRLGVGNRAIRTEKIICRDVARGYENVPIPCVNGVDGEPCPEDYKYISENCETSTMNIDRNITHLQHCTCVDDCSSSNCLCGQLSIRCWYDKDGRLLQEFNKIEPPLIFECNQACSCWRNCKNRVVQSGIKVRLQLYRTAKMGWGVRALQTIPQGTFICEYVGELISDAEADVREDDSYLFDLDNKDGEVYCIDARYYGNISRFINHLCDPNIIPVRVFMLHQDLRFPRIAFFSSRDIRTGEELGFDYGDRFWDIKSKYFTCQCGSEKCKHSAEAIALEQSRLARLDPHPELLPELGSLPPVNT

SU39H1 = SU39H1 (Homo sapiens, UniProt O43463); conditions: up to a concentration of 40 μM; cited from earlier work
NDMT1 = NDMT1 (Homo sapiens, UniProt P26358); conditions: up to a concentration of 40 μM; cited from earlier work

## O=C(O)c1ccc2c(c1)nc(NC(=O)c1ccccc1)n2CCCc1ccccc1 [BRD9539]
G9a
  potency compared with BRD4770: is more potent than
SU39H1
  selectivity for G9a and PRC2 over SU39H1: selective
NDMT1
  selectivity for G9a and PRC2 over NDMT1: selective
